# Measurements taken from patent US7951979B2, “2,4,6-trisubstituted phenols having anesthetic properties” (University of Iowa Research Foundation, priority 2006, dated 2011).
# Tested on: rats
# Experiment: i.v. injection into the lateral tail vein of rats, loss of righting reflex / anesthesia
# Details: Rat 2 (agitated prior to injection); approximately 15 mg/kg i.v. (lateral tail vein), 16% Cremophor EL in water
structure (smiles),measurement,value
"CC(C)c1cc(C(O)C(F)(F)F)cc(C(C)C)c1O (stereo not shown) [Compound 1, 2,6-diisopropyl-4-(2,2,2-trifluoro-1-hydroxy-ethyl)-phenol]",time post-injection at which the rat appeared normal,about 4.75 minutes
